In patent publication US7767789B2, “Truncated proteins as cancer markers” (University Hopitals of Cleveland, priority 2005, dated 2010):

Tests used:
[1] = target: T1, P2X7 receptor (CaSki cells) (Homo sapiens, UniProt Q99572); assay: Cytosolic calcium (fura-2) in CaSki cells attached on filters; assay type: cell-based; parameters: human cervical epithelial cells expressing endogenous P2X7 receptor protein; endogenous in cells; host or cells: CaSki (ATCC); conditions: pretreatment, KN-62 100 nM 15 min before BzATP
T1 sequence (Q99572 1-595): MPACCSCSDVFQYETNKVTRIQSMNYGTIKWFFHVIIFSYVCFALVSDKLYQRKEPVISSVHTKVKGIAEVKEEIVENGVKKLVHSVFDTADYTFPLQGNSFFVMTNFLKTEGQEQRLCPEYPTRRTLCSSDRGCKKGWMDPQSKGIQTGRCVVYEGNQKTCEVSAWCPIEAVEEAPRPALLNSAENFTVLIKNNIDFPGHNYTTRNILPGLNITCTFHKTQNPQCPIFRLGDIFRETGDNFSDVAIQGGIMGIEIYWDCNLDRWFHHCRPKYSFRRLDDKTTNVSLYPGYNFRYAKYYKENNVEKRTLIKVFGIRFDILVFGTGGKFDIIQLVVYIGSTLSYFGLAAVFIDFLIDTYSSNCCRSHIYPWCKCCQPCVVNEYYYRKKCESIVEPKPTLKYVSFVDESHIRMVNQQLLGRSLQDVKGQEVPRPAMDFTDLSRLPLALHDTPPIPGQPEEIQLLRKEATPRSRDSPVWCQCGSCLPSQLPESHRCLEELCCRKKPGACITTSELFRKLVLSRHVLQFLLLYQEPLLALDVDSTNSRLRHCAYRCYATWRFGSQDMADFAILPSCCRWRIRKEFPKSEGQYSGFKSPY

[2] = target: T1, P2X7 receptor (CaSki cells); assay: Ethidium bromide influx (pore formation) in CaSki cells attached on filters; assay type: cell-based; parameters: human cervical epithelial cells expressing endogenous P2X7 receptor protein; endogenous in cells; host or cells: CaSki (ATCC); conditions: pretreatment
Experimental: The method of fluorescence experiments of attached cells was described. Gorodeski et al., “A novel fluorescence chamber for the determination of volume changes in human CaSki cell cultures attached on filters” Cell Biochem Biophys 29:307-332 (1998). Changes in cytosolic calcium (Cai) were determined in fura-2 loaded cells. For experiments with the nuclear stain Ethidium Bromide (MW 394 Da), the agent was added to the perfusing solutions from a concentrated (100×) stock at a final concentration of 5 μM. Upon influx into cells, the dye binds to nuclear chromatin and elicits specific fluorescence. Changes in fluorescence were measured on-line at the 518/605 um wavelengths (excitation/emission). […]
For measurements of cytosolic calcium, cells on filters were incubated with 7 μM fura-2/acetoxymethyl ester plus 0.25% pluronic F12. Measurements of fluorescence were conducted in a custom-designed fluorescence chamber. […] Cells were illuminated over the apical surface, and the intensity of the emitted light from the apical surface was measured. Agents were added to the luminal and subluminal solutions, and changes in cytosolic calcium were determined by switching the excitation filters to record the maximal (340/510 nm excitation/emission) and minimal (380/510 nm) fluorescence. […] Upon influx into cells, the dye binds to nuclear chromatin and elicits specific fluorescence. […]

[3] = test system: P2X7 receptor (CaSki cells); assay: Western immunoblot of cellular expression of P2X7 receptor forms in CaSki cells; assay type: cell-based, human
Experimental: Gels were transferred onto Immobilon membrane (Millipore) at 200 V for 1.5 h, membranes were blocked in 5% milk, and receptor polypeptides were visualized using 1.5 μg/ml rabbit anti-P2X antibody at 4° C. overnight. Membranes were washed three times in PBS and fluorescent stained for 1 minute using an enhanced chemiluminescence kit of anti-rabbit peroxidase-conjugated secondary antibody (Santa Cruz Biotechnology, Santa Cruz, Calif.). For protein deglycosylation, 20 μg total lysate proteins containing 1% SDS was denatured by heating for 5 minutes at 100° C. The mixture was incubated overnight at room temperature after addition of U fresh N-glycosidase F (GlycoTech, Rockville, Md.) in 20 mM Tris-HCl, pH 7.5, containing 1 mM EDTA and 50 mM NaCl. Samples were analyzed by Western blot as described above.

`CNC[C@H](O)c1ccc(O)c(O)c1` [epinephrine] was tested, and the “modulation of BzATP-induced increase in cytosolic calcium” value [1] was “attenuated”, the “modulation of BzATP-induced influx of ethidium bromide” value [2] was “attenuated” and the “levels of the P2X7 receptor forms” value ([3]; Day-2 CaSki cells) was “decreased the 65-kDa form”. For the same compound, the “levels of the P2X7 receptor forms” value ([3]; Day-6 CaSki cells) was “decreased the 85-kDa and 65-kDa forms and increased the 18-kDa form”.
